Reference: US20070218504A1, “HUMAN LEPTIN-DERIVED POLYPEPTIDES AND USES THEREOF” (UNIVERSITY OF PITTSBURGH, priority 2006, published 2007)

Tested on: tyrosine phosphorylation of STAT3
Assay: Leptin-induced tyrosine phosphorylation of STAT3 in HEK293 cells over-expressing OB-Rb in the presence of CRP (Western blot)
Type: cell-based, human
Conditions: separate control, concentrations much higher than CRP
Description: To determine if the interaction between CRP and leptin dampens the cellular actions of leptin, the ability of leptin to stimulate tyrosine phosphorylation of STAT3 and PI3-kinase activity was assessed in the presence of CRP in vitro. HEK293 cells over-expressing OB-Rb were serum starved for 2 hours before addition of leptin and CRP (CHEMICON or EMD Biosciences). Leptin, in the presence or absence of CRP, was pre-incubated in μ-MEM (with additional 1 mM Ca^2+) for 30 minutes at 37° C. before being applied to the cells. After a 30-minute incubation with leptin, the cells were harvested in lysis buffer (18). The resultant protein extract was subjected to a Western blot analysis using an anti-phospho-STAT3 specific antibody (Cell Signaling, Beverly, Mass.). For studies involving primary hypothalamic neurons, the hypothalamus from rats was surgically isolated immediately after euthanasia, and placed in the DMEM for incubation with leptin in the presence or absence of CRP.

Question: “human serum albumin: control serum protein [reference compound]” was tested. Which “effect of control serum protein on leptin-induced STAT3 phosphorylation / leptin signaling” value did it give?
Answer: no appreciable effect
